From PubChem BioAssay AID1800 (The Scripps Research Institute Molecular Screening Center, 2009)
The list shows a part of the results, in another mix than the full data. Some results for these compounds are left out of this collection, so the calls shown say nothing about other tests. The source made the active and inactive calls.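 How the source made its calls: active means inhibition above the mean of all tested compounds plus 3 SD, set per campaign (cut at about 35% in these data); inactive means the rest.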

The molecules below were run on Hepatitis C virus NS3 helicase (assay: inhibitors of HCV NS3 helicase, primary screen, biochemical, Cy5 molecular beacon fluorescence (AID 1800;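 further: 0% = DMSO wells and 100% = thioflavine S control wells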)). Settings: NS3 helicase DNA unwinding, at 10.9 µM, hits give high values.
How it was run: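 System: HCV NS3 helicase fragment; control set: DMSO and thioflavine S; technique: Cy5 fluorescence at 0 and 60 min, beacon hairpin quenching; reagent: beacon DNA duplex substrate plus ATP; replicates: singlicate; schedule: 1 h reaction at 25 °C, ATP-initiated; medium: MOPS buffer pH 6.5 with MgCl2, DTT, Tween20, BSA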

| SMILES | inhibition |
| --- | --- |
| O=C(NCC1(N2CCCCC2)CCCCC1)c1cc([N+](=O)[O-])ccc1Cl | inactive: -1.41% |
| CN1[C@@H]2CC[C@H]1CC(OC(=O)C(O)(c1ccccc1)c1ccccc1)C2 (some centres undefined) | inactive: 2.84% |
| CCN(CC)CC(C)C(C)OC(=O)C(O)(c1ccccc1)c1ccccc1 (centres undefined) | inactive: 0.62% |
| COc1cc(SC)ccc1C(=O)NCC1(N(C)C)CCCCC1 | inactive: 9.49% |
| CC(C)N1C(=O)CC2(CCN(CCOC(=O)C(O)(c3ccccc3)c3ccccc3)CC2)C1=O | inactive: 2.62% |
| Cc1ccc(C(=O)NCC2(N3CCCCC3)CCCCC2)cc1 | inactive: -31.3% |
| Cc1ccccc1C(=O)NCC1(N2CCCCC2)CCCCC1 | inactive: -3% |
| CN(C)C1CCCC1OC(=O)C(O)(c1ccccc1)c1ccccc1 (centres undefined) | inactive: 1.37% |
| CN(C)c1ccc(C(=O)NCC2(N(C)C)CCCCC2)cc1 | inactive: -1.83% |
| C=CCN1CCN(CCOC(=O)C(O)(c2ccccc2)c2ccccc2)CC1 | inactive: 2.53% |
| O=C(NCC1(N2CCCCC2)CCCCC1)c1cc(F)c(F)cc1Cl | inactive: -8.62% |
| COc1ccc(C(=O)NCC2(N(C)C)CCCCC2)cc1 | inactive: -7.17% |
| Cc1cc(C(=O)NCC2(N3CCCCC3)CCCCC2)ccc1[N+](=O)[O-] | inactive: -12.6% |
| CCN1CCCC(OC(=O)C2(O)c3ccccc3C=Cc3ccccc32)C1 (centres undefined) | inactive: -14% |
| O=C(NCC1(N2CCCCC2)CCCCC1)c1cccc(Br)c1 | inactive: 1.68% |
| CN(C)C1(CNC(=O)c2ccc(Br)cc2)CCCCC1 | inactive: 5.05% |
| COc1cc(C(=O)NCC2(N(C)C)CCCCC2)c([N+](=O)[O-])cc1OC | inactive: 27.5% |
| COc1cccc(C(=O)NCC2(N3CCCCC3)CCCCC2)c1 | inactive: -10.8% |
| COc1ccc(Cl)cc1C(=O)NCC1(N(C)C)CCCCC1 | inactive: 7.24% |
| O=C(NCC1(N2CCCCC2)CCCCC1)c1cccc(Cl)c1 | inactive: 2.22% |
| O=C(OC1CN2CCC1CC2)C(CO)(c1ccccc1)c1ccccc1 (centres undefined) | inactive: -4.35% |
| COc1ccc(Br)c(C(=O)NCC2(N3CCCCC3)CCCCC2)c1 | inactive: -20.2% |
| CC(C)Oc1ccc(C(=O)NCC2(N(C)C)CCCCC2)cc1 | inactive: -6.51% |
| CN(C)c1cccc(C(=O)NCC2(N(C)C)CCCCC2)c1 | inactive: 2.66% |
